The target in the experiment is T1, 5-HT2C receptor (Rattus norvegicus, UniProt P08909).
T1 construct: host or cells: SR-3T3 cells
T1 sequence (P08909 33-460): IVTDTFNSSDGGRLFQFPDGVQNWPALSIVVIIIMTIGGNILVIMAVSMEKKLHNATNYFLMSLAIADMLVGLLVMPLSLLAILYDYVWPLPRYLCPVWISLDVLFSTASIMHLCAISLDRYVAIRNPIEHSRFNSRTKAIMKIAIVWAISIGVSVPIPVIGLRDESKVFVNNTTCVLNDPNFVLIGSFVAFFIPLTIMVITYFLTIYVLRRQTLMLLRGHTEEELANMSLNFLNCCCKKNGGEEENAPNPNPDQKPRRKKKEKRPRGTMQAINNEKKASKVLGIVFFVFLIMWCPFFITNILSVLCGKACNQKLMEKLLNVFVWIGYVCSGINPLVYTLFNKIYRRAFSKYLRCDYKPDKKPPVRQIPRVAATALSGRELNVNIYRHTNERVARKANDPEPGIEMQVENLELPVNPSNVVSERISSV
Nature of the experiment: 5-HT2C binding (3H-Mesulergine, SR-3T3 cells). The note with it: 0.5 nM 3H-Mesulergine.

On to `Cc1nc2sccn2c(=O)c1CCN1CCC(=C(c2ccc(F)cc2)c2ccc(F)cc2)CC1` [ritanserin], for which the Ki was determined as 0.19 nM.

The Ki is the dissociation constant of the complex between target and ligand, obtained from inhibition or displacement.

For the origin of these results see patent publication US20030032636A1, “Combination of a serotonin reuptake inhibitor and a 5-HT2C antagonist, inverse agonist or partial agonist” (H. Lundbeck A/S, priority 1999, published 2003).
